In US20180177850A1 one finds EC50 (cAMP, CHO/GLP-1R) and EC50 (cAMP, CHO/GCGR) data, which are given here for 4 molecules.

The target of assay [1] is T1, human GLP-1 receptor (human), P43220.
T1 chain: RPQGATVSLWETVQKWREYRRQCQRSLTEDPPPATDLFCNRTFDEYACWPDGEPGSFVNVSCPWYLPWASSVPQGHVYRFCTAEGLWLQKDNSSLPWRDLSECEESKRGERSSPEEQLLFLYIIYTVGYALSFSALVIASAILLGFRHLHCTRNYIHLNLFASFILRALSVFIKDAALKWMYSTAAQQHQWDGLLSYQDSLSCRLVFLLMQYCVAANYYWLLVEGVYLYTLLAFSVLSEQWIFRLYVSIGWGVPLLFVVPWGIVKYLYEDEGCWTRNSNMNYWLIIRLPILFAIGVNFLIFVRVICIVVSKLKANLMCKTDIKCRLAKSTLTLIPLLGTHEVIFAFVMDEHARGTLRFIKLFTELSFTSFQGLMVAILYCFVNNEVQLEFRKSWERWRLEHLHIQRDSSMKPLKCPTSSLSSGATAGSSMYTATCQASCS
In words: cell-based or functional assay.

Assay [2] concerns the target human glucagon receptor (human), P47871. As to the kind of experiment: cell-based or functional assay.

B1: oxyntomodulin derivative of SEQ ID NO: 17 (peptide)
peptide: HSQGTFTSDYSRYLDEEAVRLFIEWIRNTKRNRNNIA
modifications: not checked
In assay [1], B1 returned an EC50 (cAMP, CHO/GLP-1R) of 97.9 nM. In assay [2], the EC50 (cAMP, CHO/GCGR) is > 1000 nM.

B2: oxyntomodulin derivative of SEQ ID NO: 2 (peptide)
peptide: HSQGTFTSDYSKYLDEEAVRLFIEWLMNTKRNRNNIA
modifications: not checked
Molecule B2 returned an EC50 (cAMP, CHO/GLP-1R) in assay [1] of 51.8 nM. In addition, in assay [2], the EC50 (cAMP, CHO/GCGR) stood at 12.8 nM.

B3: oxyntomodulin derivative of SEQ ID NO: 13 (peptide)
peptide: HSQGTFTSDYSRYLDEEAVELFIEWLMNTK
modifications: not checked
B3: the EC50 (cAMP, CHO/GLP-1R) in assay [1] was > 1000 nM. Also, the EC50 (cAMP, CHO/GCGR) in assay [2] was > 1000 nM.

B4: oxyntomodulin derivative of SEQ ID NO: 4 (peptide)
peptide: HGQGTFTSDYSRYLEEEAVRLFIEWLKNGGPSSGAPPPS
modifications: not checked
As for B4, the EC50 (cAMP, CHO/GLP-1R) in assay [1] came out at 5.5 nM.
